# scFv variants of Ab-14 (light chain) against a SARS-CoV-2 spike peptide

Binding partner: SARS-CoV-2 spike HR2 peptide, sequence PDVDLGDISGINAS.

Each scFv is VH, the linker GGGGSGGGGSGGGGS, VL, as in the parent Ab-14, and differs from it in the CDRs of the light chain only.
VH: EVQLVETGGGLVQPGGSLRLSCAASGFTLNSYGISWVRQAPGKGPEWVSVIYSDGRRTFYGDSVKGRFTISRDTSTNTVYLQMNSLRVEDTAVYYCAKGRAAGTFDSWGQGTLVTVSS
VL: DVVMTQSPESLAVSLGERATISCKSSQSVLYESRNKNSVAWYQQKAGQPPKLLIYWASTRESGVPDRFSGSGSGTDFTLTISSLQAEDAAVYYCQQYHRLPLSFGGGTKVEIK

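AAYL50 was designed without a model: most single CDR substitutions and a random sample of double and triple ones. AlphaSeq pools MATa yeast showing the antibodies with MATalpha yeast showing the peptide. Pairs that bind mate more often; barcode pairs of the diploids are counted by sequencing. A regression on co-assayed BCL2-family reference pairs converts the normalised counts of each replicate to an apparent Kd. Mating was done three times.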

Positions count from residue 1 of the parent VL; S33R puts R in place of S. The Kd shown is the geometric mean over detected replicates; a lower Kd is a better binder. A pair that was not seen in any replicate is written "not detected"; this usually means weak binding, but a binder can also be missed. Nonspecific signal, from three strains lacking the peptide, appeared in 18% of pairings of library AAYL50, centred on 15 µM (5% of these signals below 970 nM); values are not corrected for it.

changes,Kd,detected
S33R V39S R60P,25 nM,3/3
T59S R60G P101D,13 nM,3/3
S33T S38D S103C,not detected,0/3
Y31T L100C P101D,20 nM,3/3
Q27S S58K L102M,not detected,0/3
K36E Y97G R99T,8.1 nM,3/3
H98C P101N S103P,38 µM,2/3
Q27S N37R E61M,6.1 nM,3/3
S26Q S28W R34M,96 nM,3/3
S33T N37M R60P,not detected,0/3
A40C R60V S62R,not detected,0/3
S28R A57R L102G,2.2 µM,1/3
S25Q S38R,1.6 µM,1/3
K24C K36M Q96L,not detected,0/3
S28L K36C V39L,1.6 µM,3/3
E32G V39L Y97S,7.7 µM,1/3
V29R N37F L100S,not detected,0/3
K24D K36E Q95M,not detected,0/3
K24G V29I P101C,not detected,0/3
K36T A40I W56V,44 µM,1/3
Q27P T59F Y97M,not detected,0/3
S28I Q95K R99A,not detected,0/3
Y31Q A40G E61G,1.2 µM,1/3
K24F Q27S E32Y,12 µM,2/3
Q27E L30D R34K,2.7 nM,3/3
Y31L S33F N37V,54 nM,3/3
N37D E61V R99H,10 nM,3/3
S28Y S58D L102S,12 µM,2/3
K36A S62A,5.7 nM,3/3
A40C S58M L100C,26 µM,2/3
V29H S58V S62P,not detected,0/3
S26G N37G Q95T,not detected,0/3
S28F V39A A40D,not detected,0/3
S33R K36G T59M,69 nM,3/3
V39D L100E L102R,75 µM,3/3
S33F S58A,340 nM,2/3
K24T S38Q Q95G,820 µM,1/3
V29C H98E R99T,68 nM,3/3
V29M L30T E61D,8.8 nM,3/3
E32K A40P S62Q,45 nM,3/3
K24H T59M R99L,13 nM,3/3
Y31C Q96D L100M,540 nM,3/3
K24E R34W P101K,not detected,0/3
W56E S58F R60E,11 µM,1/3
Y31I R60Q L100R,not detected,0/3
A40G R60T Q95R,not detected,0/3
S26W S62K L100N,19 nM,3/3
S38C W56Y T59L,520 nM,3/3
A40M A57T S58W,not detected,0/3
N35C N37H P101E,38 nM,3/3
A57C Q96F P101Q,1.4 µM,2/3
S26Y A57V R60A,not detected,0/3
N35S Q95V L100S,1.9 µM,1/3

From the list, the first 5 with no signal in any replicate:

changes	Kd	detected
S33T S38D S103C	not detected	0/3
Q27S S58K L102M	not detected	0/3
S33T N37M R60P	not detected	0/3
A40C R60V S62R	not detected	0/3
K24C K36M Q96L	not detected	0/3

Reference: Engelhart et al. 2022, doi:10.1038/s41597-022-01779-4. File: FLAb, binding data.